{
  "sequences": {"note": "Amino acid sequences for entries named in this document (tags omitted).", "UniProt P23975, whole entry, looked up": "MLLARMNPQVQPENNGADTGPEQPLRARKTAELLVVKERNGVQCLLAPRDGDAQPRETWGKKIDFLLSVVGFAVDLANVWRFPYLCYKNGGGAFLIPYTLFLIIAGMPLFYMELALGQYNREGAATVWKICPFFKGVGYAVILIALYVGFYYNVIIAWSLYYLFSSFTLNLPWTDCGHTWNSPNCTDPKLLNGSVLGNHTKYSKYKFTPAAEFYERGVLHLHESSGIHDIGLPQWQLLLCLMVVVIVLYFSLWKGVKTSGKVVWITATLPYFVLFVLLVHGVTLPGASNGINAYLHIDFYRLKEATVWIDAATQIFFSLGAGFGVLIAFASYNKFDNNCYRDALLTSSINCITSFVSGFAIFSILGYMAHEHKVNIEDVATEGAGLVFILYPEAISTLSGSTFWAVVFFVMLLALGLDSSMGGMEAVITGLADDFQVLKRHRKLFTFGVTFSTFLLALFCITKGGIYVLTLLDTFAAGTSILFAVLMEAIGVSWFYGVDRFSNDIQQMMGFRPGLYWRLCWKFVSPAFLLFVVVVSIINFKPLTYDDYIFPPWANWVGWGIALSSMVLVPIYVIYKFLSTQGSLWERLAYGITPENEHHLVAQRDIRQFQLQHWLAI", "UniProt Q01959, whole entry, looked up": "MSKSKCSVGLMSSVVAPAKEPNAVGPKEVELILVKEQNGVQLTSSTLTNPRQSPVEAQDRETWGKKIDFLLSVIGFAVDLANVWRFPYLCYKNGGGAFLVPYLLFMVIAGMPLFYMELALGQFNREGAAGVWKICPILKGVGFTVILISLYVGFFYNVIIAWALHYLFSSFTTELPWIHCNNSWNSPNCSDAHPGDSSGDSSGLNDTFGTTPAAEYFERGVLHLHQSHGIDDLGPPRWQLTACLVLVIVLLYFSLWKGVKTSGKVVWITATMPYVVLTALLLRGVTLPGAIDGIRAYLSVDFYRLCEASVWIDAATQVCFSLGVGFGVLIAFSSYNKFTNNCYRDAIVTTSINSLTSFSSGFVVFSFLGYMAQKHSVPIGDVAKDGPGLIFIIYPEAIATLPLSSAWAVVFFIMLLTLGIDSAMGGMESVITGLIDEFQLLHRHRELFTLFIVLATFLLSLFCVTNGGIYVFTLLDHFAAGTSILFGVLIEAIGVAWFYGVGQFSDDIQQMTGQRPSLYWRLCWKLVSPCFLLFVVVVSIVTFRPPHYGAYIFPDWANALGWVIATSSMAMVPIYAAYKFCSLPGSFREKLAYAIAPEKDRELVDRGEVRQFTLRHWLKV", "UniProt P31645, whole entry, looked up": "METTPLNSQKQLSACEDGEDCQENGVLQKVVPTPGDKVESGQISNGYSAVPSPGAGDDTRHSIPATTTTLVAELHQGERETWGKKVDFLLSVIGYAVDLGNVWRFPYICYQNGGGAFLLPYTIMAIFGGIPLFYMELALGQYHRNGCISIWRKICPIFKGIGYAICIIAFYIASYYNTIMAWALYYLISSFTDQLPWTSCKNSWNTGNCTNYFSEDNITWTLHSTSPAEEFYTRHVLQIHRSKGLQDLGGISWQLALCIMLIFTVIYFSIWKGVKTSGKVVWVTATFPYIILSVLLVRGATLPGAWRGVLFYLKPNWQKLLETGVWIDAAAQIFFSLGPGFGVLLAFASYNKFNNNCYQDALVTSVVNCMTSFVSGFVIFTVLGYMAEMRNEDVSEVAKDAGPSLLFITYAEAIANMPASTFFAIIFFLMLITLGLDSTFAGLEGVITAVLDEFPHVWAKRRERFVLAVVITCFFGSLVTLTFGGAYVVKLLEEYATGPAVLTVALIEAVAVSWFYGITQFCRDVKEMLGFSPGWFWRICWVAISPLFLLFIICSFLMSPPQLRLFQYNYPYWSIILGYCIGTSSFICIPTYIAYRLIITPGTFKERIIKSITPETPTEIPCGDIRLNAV"},
  "source": "ChEMBL document CHEMBL1145304",
  "about": "(Bioorg Med Chem Lett, 2006)",
  "key": {"[1]": {"biological_target": "Sodium-dependent noradrenaline transporter (Homo sapiens, UniProt P23975)", "details": "hek293"}, "[2]": {"biological_target": "Sodium-dependent dopamine transporter (Homo sapiens, UniProt Q01959)", "details": "hek293"}, "[3]": {"biological_target": "Sodium-dependent serotonin transporter (Homo sapiens, UniProt P31645)", "assay": "Inhibition of [3H]5-HT reuptake at 5HT transporter in HEK293 cells"}},
  "data": [
    {"smiles": "Clc1cccc(Cl)c1CC(c1ccccc1)N1CCNCC1", "note": "(stereo not drawn)", "values": [
      {"measurement": "IC50", "setting": "[1]", "value": 82, "unit": "nM"},
      {"measurement": "IC50", "setting": "[2]", "value": 970, "unit": "nM"},
      {"measurement": "IC50", "setting": "[3]", "value": 12, "unit": "nM"}
    ]}
  ]
}
